Biological target: T1, apelin receptor (APJ) (Homo sapiens, UniProt P35414)
T1 sequence (P35414 1-380): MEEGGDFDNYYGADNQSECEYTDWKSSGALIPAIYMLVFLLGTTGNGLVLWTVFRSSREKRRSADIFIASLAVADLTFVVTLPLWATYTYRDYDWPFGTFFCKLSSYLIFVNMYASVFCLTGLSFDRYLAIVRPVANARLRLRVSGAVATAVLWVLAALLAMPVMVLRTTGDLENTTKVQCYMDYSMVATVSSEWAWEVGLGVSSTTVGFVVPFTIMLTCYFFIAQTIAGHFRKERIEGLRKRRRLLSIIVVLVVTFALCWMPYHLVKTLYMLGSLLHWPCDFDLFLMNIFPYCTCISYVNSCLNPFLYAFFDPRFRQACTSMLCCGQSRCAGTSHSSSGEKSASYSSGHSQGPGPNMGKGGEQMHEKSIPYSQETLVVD
Assay: In vitro apelin agonist activity (methods of Giddings et al., Apelin-13 as positive control)
Type: cell-based
Details: read-out: EC50 (nM) Ave
Description: Characterization of the Apelin Agonist Activity of the Compounds
1:39-47, the contents of which are hereby incorporated by reference in its entirety. Using the methods described in Giddings et al. and Apelin-13 as a positive control.

Question: How did the EC50 turn out when COc1cccc(OC)c1-c1cc(C(=O)N[C@@H](CCC2CCCCC2)CC(=O)O)nn1C1CCCCC1 [compound 622, (3S)-5-cyclohexyl-3-{[1-cyclohexyl-5-(2,6-dimethoxyphenyl)-1H-pyrazol-3-yl]formamido}pentanoic acid] was run?
Answer: 380 nM
